This data set can be described thus: in vivo. As to conditions: mouse. As to the method: The toxicity study was carried out on the conventional mouse, weighing about 20 g.
The substances were administered orally and intraperitoneally.
The LD50 was calculated in accordance with the method of L. C. MILLER and M. L. TAINTER, Proc. Soc. exper.

Consider 1 molecule from US4188387A, “Amino-aryl 1,24-triazines useful in the treatment of diverse pain” (priority 1977, dated 1980).

Where two headings read alike, the source gives them in different places.

A word on the LD50: it is the dose expected to kill half of the subjects tested. In the case of `CN(C)c1ccc(-c2nc(=O)n(C)nc2-c2ccc(N(C)C)cc2)cc1` [ST 729, 2-methyl 3-oxo 5,6-di(paradimethylamino-phenyl) as triazine], the LD50 was 200 mg/kg (ip, intraperitoneal, read-out: LD50 intraperitoneally) and more than 1000 mg/kg (oral, read-out: LD50 orally).
